Experimental data from patent publication US20260384438A1, “PYRROLOPYRIMIDINE CARBOXAMIDES” (published 2026).

Chains of the proteins cited; added tags and fusions are not shown. Residues count along the entry.
UniProt Q13873, 27-1038 limits assumed: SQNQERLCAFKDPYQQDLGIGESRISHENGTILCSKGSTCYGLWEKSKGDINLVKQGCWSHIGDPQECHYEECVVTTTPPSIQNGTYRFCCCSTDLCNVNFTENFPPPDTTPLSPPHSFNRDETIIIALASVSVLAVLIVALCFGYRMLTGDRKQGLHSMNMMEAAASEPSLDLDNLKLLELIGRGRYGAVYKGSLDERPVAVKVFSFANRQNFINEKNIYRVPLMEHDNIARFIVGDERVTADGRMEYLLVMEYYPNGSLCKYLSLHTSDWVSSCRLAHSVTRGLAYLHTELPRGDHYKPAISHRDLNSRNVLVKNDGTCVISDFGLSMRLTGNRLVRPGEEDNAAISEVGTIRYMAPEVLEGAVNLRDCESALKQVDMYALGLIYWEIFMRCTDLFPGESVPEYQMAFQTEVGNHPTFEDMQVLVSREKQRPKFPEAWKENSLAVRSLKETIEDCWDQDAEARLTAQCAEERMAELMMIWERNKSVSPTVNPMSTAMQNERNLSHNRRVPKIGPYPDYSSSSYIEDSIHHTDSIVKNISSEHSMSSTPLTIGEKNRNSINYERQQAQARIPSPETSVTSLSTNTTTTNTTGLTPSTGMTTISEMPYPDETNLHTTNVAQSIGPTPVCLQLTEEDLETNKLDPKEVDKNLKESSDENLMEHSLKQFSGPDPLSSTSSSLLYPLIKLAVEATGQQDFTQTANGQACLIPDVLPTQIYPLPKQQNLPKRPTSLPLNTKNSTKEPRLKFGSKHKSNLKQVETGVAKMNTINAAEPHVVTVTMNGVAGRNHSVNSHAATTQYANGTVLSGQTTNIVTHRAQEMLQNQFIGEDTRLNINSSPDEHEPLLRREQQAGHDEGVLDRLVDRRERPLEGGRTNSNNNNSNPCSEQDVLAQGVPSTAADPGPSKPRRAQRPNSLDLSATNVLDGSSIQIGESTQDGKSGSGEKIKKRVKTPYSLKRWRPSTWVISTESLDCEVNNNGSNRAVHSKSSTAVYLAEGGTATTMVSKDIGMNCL
UniProt Q00526, whole entry: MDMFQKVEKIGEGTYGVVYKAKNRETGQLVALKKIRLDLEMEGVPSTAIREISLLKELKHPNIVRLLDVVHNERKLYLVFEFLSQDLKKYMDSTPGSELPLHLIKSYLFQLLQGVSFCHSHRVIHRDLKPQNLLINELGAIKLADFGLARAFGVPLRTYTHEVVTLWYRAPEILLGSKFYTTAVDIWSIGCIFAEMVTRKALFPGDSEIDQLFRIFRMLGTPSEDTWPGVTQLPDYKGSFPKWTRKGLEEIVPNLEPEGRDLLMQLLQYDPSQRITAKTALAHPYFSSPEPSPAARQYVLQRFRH
UniProt Q9UPZ9, whole entry: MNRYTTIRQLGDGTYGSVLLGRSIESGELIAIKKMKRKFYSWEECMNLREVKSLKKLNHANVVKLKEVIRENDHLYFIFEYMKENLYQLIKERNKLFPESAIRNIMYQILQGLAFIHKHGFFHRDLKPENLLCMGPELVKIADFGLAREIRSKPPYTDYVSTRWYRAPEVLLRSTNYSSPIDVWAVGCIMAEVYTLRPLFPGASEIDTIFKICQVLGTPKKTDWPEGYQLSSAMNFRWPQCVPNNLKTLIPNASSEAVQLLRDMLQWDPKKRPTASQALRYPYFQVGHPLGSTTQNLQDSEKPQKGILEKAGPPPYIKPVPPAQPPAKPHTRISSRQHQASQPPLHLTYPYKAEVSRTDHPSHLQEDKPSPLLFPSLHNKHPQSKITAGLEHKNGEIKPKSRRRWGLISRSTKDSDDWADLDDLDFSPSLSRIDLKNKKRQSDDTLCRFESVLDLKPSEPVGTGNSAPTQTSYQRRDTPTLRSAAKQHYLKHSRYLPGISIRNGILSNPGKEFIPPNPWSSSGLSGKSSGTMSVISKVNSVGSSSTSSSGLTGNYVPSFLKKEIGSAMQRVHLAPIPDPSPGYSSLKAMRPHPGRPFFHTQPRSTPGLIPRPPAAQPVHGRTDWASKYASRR
UniProt Q99558, whole entry: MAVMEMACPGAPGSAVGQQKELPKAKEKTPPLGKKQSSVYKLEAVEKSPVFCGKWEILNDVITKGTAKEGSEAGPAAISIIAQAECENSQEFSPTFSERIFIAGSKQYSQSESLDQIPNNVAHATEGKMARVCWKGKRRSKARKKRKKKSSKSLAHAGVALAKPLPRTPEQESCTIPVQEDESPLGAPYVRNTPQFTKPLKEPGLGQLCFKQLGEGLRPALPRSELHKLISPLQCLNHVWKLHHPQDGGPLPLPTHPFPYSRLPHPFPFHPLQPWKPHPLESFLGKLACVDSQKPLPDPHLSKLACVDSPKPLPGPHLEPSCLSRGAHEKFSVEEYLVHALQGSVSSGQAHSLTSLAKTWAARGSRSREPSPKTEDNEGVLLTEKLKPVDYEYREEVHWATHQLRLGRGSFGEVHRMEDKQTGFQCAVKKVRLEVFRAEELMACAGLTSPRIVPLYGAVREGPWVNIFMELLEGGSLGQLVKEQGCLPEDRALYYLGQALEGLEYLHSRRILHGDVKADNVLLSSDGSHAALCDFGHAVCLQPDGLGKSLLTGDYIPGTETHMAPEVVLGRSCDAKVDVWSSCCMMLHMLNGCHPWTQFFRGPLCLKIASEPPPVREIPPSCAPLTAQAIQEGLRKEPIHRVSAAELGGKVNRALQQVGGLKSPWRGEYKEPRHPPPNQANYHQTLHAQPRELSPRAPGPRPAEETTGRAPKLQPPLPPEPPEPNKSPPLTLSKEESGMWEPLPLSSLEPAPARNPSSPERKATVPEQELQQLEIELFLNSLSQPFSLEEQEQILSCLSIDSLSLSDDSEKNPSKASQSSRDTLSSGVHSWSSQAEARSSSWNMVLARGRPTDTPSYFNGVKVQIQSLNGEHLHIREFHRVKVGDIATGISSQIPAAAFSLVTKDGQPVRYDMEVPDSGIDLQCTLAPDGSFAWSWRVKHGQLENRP
UniProt O43318, 1-303 limits assumed: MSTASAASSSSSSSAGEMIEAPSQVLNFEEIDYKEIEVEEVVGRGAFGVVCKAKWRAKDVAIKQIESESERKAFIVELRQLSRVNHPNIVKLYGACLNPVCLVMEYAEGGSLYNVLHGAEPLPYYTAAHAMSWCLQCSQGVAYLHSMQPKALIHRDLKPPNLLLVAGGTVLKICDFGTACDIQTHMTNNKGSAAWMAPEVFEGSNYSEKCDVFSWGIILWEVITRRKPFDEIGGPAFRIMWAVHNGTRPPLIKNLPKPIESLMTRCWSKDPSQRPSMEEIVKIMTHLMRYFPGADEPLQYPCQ
UniProt Q96GX5, whole entry: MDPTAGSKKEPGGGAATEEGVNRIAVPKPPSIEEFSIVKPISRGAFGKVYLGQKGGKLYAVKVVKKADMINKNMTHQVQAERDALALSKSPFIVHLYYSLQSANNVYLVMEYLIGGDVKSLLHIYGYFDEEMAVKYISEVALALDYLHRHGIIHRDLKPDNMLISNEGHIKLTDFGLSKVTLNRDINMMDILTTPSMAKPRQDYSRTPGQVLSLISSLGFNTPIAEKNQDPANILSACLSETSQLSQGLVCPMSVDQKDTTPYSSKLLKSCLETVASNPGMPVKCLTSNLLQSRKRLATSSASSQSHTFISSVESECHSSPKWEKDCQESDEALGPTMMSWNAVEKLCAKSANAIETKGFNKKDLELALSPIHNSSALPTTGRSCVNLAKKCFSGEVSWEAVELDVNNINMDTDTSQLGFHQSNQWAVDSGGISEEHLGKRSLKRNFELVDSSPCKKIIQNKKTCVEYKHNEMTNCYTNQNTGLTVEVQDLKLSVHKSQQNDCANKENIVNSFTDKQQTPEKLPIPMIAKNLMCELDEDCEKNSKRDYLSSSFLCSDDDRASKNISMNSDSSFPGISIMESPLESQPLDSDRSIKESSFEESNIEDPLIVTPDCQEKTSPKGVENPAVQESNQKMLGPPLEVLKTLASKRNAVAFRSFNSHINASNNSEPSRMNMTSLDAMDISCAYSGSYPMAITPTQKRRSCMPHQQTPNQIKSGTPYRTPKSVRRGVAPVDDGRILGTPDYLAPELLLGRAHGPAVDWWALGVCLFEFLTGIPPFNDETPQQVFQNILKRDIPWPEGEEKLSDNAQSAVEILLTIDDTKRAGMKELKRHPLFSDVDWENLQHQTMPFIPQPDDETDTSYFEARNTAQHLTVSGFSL
UniProt Q99640, whole entry: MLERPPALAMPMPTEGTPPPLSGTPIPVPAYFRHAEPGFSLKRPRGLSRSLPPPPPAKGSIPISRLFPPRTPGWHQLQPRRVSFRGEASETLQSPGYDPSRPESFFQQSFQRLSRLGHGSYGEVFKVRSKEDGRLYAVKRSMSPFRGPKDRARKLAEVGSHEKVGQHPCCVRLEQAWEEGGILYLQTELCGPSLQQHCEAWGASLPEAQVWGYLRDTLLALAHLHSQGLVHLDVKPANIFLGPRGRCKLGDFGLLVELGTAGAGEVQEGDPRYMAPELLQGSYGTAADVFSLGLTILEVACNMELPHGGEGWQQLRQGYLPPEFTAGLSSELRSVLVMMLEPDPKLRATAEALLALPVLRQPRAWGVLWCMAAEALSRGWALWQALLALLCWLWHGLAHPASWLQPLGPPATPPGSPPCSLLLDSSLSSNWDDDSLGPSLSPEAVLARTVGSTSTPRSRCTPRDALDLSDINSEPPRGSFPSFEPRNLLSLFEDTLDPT
UniProt P57059, whole entry: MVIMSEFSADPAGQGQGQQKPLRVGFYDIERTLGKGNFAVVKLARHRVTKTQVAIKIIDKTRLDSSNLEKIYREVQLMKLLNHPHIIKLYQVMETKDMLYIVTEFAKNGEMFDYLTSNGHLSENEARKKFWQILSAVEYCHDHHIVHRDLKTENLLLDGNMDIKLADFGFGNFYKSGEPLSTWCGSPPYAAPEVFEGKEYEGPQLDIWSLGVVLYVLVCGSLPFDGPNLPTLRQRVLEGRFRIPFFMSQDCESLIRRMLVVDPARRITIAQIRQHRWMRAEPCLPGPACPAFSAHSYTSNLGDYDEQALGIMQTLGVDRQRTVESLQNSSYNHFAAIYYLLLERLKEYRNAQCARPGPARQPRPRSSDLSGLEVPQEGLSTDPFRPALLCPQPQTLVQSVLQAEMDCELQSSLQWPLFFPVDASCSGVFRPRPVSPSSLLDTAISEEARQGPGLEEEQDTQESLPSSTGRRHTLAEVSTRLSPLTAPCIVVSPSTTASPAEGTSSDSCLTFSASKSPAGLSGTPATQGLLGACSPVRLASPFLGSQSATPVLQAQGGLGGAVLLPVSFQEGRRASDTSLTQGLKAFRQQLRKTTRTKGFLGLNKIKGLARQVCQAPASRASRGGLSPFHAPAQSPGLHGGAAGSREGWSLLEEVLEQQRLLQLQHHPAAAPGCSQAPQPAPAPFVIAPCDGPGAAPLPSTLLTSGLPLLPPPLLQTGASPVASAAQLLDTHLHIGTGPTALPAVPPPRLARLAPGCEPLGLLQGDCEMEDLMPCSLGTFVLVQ
UniProt Q9H2G2, whole entry: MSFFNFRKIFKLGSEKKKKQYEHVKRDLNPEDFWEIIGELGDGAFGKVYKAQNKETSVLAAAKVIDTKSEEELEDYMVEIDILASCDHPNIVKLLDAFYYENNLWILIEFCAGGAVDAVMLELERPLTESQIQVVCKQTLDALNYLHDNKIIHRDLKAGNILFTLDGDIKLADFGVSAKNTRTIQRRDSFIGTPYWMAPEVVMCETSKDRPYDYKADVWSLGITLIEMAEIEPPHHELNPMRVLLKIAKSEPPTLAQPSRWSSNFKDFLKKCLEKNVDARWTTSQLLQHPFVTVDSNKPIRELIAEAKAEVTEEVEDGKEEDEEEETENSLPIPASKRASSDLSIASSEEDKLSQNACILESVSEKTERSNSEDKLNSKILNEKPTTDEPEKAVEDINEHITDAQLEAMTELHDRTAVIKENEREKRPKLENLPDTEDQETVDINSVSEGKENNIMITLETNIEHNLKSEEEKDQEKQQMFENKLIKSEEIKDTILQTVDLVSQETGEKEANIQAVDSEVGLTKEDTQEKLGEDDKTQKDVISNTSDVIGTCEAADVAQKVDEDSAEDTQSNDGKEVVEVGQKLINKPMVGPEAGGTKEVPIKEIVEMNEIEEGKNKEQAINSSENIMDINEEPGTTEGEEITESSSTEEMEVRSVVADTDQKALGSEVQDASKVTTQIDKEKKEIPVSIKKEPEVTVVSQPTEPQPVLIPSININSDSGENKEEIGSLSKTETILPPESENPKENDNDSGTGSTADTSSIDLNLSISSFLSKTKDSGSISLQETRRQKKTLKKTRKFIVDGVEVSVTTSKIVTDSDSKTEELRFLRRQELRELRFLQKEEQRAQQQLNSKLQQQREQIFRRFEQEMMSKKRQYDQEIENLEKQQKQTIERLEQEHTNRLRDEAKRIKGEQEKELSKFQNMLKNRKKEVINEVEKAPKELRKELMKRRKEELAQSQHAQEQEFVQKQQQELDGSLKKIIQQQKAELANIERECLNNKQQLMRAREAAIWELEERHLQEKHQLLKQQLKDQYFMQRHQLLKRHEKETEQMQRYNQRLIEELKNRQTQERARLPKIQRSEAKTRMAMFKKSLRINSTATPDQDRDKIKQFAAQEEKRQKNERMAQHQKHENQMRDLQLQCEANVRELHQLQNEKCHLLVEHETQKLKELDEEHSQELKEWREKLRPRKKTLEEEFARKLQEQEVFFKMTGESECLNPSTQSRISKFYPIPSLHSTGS

Key:
Assay in all cases: Kinase profiling, Lantha
ACVR2A = ACVR2A (Homo sapiens, UniProt P27037); details: 1 μM, KmATP
ACVR2B = ACVR2B (Homo sapiens, UniProt Q13705)
AMPK (A1/B2/G1) = AMPK (A1/B2/G1) (Homo sapiens, UniProt Q13131); details: 1 μM, KmATP
BMPR2 = BMPR2 (Homo sapiens, UniProt Q13873); details: 1 μM, KmATP
BRSK2 = BRSK2 (Homo sapiens, UniProt Q8IWQ3); details: 1 μM, KmATP
CAMK2G = CAMK2G (Homo sapiens, UniProt Q13555); details: 1 μM, KmATP
CDK3/cyclin E1 = CDK3/cyclin E1 (Homo sapiens, UniProt Q00526); details: 1 μM, KmATP
DDR2 Hu Bind = DDR2 Hu Bind (Homo sapiens, UniProt Q16832); details: 1 μM, KmATP
DYRK2 = DYRK2 (Homo sapiens, UniProt Q92630); details: 1 μM, KmATP
ICK = ICK (Homo sapiens, UniProt Q9UPZ9)
LIMK1 = LIMK1 (Homo sapiens, UniProt P53667); details: 1 μM, KmATP
MAP2K4 (MEK4) = MAP2K4 (MEK4) (Homo sapiens, UniProt P45985); details: 1 μM, KmATP
MAP2K6 (MKK6) = MAP2K6 (MKK6) (Homo sapiens, UniProt P52564); details: 1 μM, KmATP
MAP3K14 (NIK) = MAP3K14 (NIK) (Homo sapiens, UniProt Q99558); details: 1 μM, KmATP
MAP3K7/MAP3K7IP1 = MAP3K7/MAP3K7IP1 (Homo sapiens, UniProt O43318); details: 1 μM, KmATP
MAPK10 (JNK3) = MAPK10 (JNK3) (Homo sapiens, UniProt P53779); details: 1 μM, KmATP
MAPK8 (JNK1) = MAPK8 (JNK1) (Homo sapiens, UniProt P45983); details: 1 μM, KmATP
MAPK9 (JNK2) = MAPK9 (JNK2) (Homo sapiens, UniProt P45984); details: 1 μM, KmATP
MASTL = MASTL (Homo sapiens, UniProt Q96GX5); details: 1 μM, KmATP
MYLK (MLCK) = MYLK (MLCK) (Homo sapiens, UniProt Q15746); details: 1 μM, KmATP
MYLK4 = MYLK4 (Homo sapiens, UniProt Q86YV6); details: 1 μM, KmATP
MYO3A (MYO3 alpha) = MYO3A (MYO3 alpha) (Homo sapiens, UniProt Q8NEV4); details: 1 μM, KmATP
MYO3B = MYO3B (Homo sapiens, UniProt Q8WXR4); details: 1 μM, KmATP
NUAK2 = NUAK2 (Homo sapiens, UniProt Q9H093); details: 1 μM, KmATP
PKMYT1 = PKMYT1 (Homo sapiens, UniProt Q99640)
PLK4 = PLK4 (Homo sapiens, UniProt O00444); details: 1 μM, KmATP
PRKACG = PRKACG (Homo sapiens, UniProt P22612); details: 1 μM, KmATP
RIPK2 = RIPK2 (Homo sapiens, UniProt O43353); details: 1 μM, KmATP
SIK1 = SIK1 (Homo sapiens, UniProt P57059); details: 1 μM, KmATP
SLK Hu Bind = SLK Hu Bind (Homo sapiens, UniProt Q9H2G2); details: 1 μM, KmATP
STK32B (YANK2) = STK32B (YANK2) (Homo sapiens, UniProt Q9NY57); details: 1 μM, KmATP
STK33 = STK33 (Homo sapiens, UniProt Q9BYT3); details: 1 μM, KmATP
STK38 = STK38 (Homo sapiens, UniProt Q15208); details: 1 μM, KmATP
TAOK1 = TAOK1 (Homo sapiens, UniProt Q7L7X3); details: 1 μM, KmATP
TGFBR1 (ALK5) = TGFBR1 (ALK5) (Homo sapiens, UniProt P36897)
TLK1 = TLK1 (Homo sapiens, UniProt Q9UKI8); details: 1 μM, KmATP
TNK2 (ACK) = TNK2 (ACK) (Homo sapiens, UniProt Q07912); details: 1 μM, KmATP
ULK3 = ULK3 (Homo sapiens, UniProt Q6PHR2); details: 1 μM, KmATP
WNK2 = WNK2 (Homo sapiens, UniProt Q9Y3S1); details: 1 μM, KmATP

Cc1nc(C(F)(F)F)c2c(C(N)=O)c(N)n(-c3c(C)ccc(O)c3C)c2n1 (single isomer, unassigned)
MEAN INHIBITION (ACVR2A): 49.464% | MEAN INHIBITION (ACVR2B; 1 μM, KmATP): 102.327% | IC50 (ACVR2B; 10-point CR, top 10 μM): 25 nM | MEAN INHIBITION (AMPK (A1/B2/G1)): 1.152% | MEAN INHIBITION (BMPR2): −4.214% | MEAN INHIBITION (BRSK2): 13.846% | MEAN INHIBITION (CAMK2G): 5.694% | MEAN INHIBITION (CDK3/cyclin E1): −4.312% | MEAN INHIBITION (DDR2 Hu Bind): −0.431% | MEAN INHIBITION (DYRK2): 0.289% | MEAN INHIBITION (ICK; 1 μM, KmATP): 90.275% | IC50 (ICK; 10-point CR, top 10 μM): 80 nM | MEAN INHIBITION (LIMK1): 27.550% | MEAN INHIBITION (MAP2K4 (MEK4)): 11.103% | MEAN INHIBITION (MAP2K6 (MKK6)): 2.457% | MEAN INHIBITION (MAP3K14 (NIK)): −2.232% | MEAN INHIBITION (MAP3K7/MAP3K7IP1): 7.591% | MEAN INHIBITION (MAPK10 (JNK3)): 4.282% | MEAN INHIBITION (MAPK8 (JNK1)): 2.729% | MEAN INHIBITION (MAPK9 (JNK2)): 3.226% | MEAN INHIBITION (MASTL): 2.020% | MEAN INHIBITION (MYLK (MLCK)): −1.187% | MEAN INHIBITION (MYLK4): −1.538% | MEAN INHIBITION (MYO3A (MYO3 alpha)): 10.901% | MEAN INHIBITION (MYO3B): 9.952% | MEAN INHIBITION (NUAK2): −1.795% | MEAN INHIBITION (PKMYT1; 1 μM, KmATP): 97.172% | IC50 (PKMYT1; 10-point CR, top 10 μM): 3 nM | MEAN INHIBITION (PLK4): 1.109% | MEAN INHIBITION (PRKACG): 7.319% | MEAN INHIBITION (RIPK2): 17.820% | MEAN INHIBITION (SIK1): 17.289% | MEAN INHIBITION (SLK Hu Bind): 2.440% | MEAN INHIBITION (STK32B (YANK2)): −14.522% | MEAN INHIBITION (STK33): 0.564% | MEAN INHIBITION (STK38): 4.799% | MEAN INHIBITION (TAOK1): 13.755% | MEAN INHIBITION (TGFBR1 (ALK5); 1 μM, KmATP): 83.957% | IC50 (TGFBR1 (ALK5); 10-point CR, top 10 μM): 119 nM | MEAN INHIBITION (TLK1): −0.646% | MEAN INHIBITION (TNK2 (ACK)): 45.685% | MEAN INHIBITION (ULK3): 8.518% | MEAN INHIBITION (WNK2): 2.291%
